Molecular target: PI3Kβ (Homo sapiens (Human), UniProt P42338)
Experiment: TR-FRET enzymatic activity assay, PI3Kβ
Format: biochemical
Details: 2× Km ATP, 2 μM PIP2, 30 minutes at 25° C., read-out: IC50-PIP-Beta
Procedure: The compounds of formula (I) were characterized for their enzymatic activity against the PI3K isoforms. The activities were measured using a time-resolved fluorescence resonance energy transfer (TR-FRET) assay. TR-FRET monitored the formation of 3,4,5-inositol triphosphate molecule that competed with fluorescently labeled PIPS for binding to the GRP-1 pleckstrin homology domain protein.
Class I PI3K isoforms were expressed and purified as heterodimeric recombinant proteins. All assay reagents and buffers for the TR-FRET assay were purchased from Millipore. […] The compounds were added to the assay solution and incubated for 30 minutes at 25° C.

The chains behind the UniProt entries cited, without tags or fusion partners. Where a name states a change or a piece, a line headed by the entry shows the natural chain unless it says otherwise.
UniProt P42338: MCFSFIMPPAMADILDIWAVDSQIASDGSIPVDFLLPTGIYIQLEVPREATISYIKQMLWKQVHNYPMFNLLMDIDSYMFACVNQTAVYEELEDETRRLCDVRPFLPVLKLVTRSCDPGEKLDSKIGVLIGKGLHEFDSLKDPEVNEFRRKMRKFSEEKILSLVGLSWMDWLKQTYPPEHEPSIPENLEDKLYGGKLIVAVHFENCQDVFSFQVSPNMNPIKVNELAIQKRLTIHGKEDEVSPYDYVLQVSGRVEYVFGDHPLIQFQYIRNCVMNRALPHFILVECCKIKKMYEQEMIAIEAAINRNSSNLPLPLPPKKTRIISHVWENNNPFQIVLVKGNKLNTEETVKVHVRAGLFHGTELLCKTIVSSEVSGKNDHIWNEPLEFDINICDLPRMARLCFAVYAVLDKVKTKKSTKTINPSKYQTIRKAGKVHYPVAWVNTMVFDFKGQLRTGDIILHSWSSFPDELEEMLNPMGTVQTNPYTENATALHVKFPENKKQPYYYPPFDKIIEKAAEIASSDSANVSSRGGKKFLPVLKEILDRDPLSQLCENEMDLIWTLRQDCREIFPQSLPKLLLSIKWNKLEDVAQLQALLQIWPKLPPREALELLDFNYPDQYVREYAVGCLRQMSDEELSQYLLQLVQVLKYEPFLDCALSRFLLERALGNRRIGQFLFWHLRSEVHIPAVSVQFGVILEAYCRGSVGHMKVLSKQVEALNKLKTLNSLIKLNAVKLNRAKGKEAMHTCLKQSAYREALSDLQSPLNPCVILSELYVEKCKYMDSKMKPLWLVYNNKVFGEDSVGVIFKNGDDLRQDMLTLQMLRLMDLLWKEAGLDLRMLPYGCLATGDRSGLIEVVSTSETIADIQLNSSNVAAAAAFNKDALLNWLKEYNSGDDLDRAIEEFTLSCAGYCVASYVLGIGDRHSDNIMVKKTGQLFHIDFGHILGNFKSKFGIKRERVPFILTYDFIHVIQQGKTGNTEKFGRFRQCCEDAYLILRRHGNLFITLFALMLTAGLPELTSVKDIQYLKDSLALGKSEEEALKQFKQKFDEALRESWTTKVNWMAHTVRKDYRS

- IC50: 22 nM
SMILES: CCCc1nc2c(C(N)=O)cc(-c3ccnc(N)c3F)cc2n1-c1ccnc2c(F)ccc(F)c12 [Example 24, 6-(2-aminopyridin-4-yl)-1-(5,8-difluoroquinolin-4-yl)-2-methylbenzimidazole-4-carboxamide]

Reference: US10227350B2 (Gilead Sciences, Inc., priority 2016, dated 2019)
